Earlier results as cited in paper PMC3050579.

Chains of the proteins cited; added tags and fusions are not shown. Lines headed by an entry give the natural chain unless they say otherwise; changes in a name come on top.
UniProt P61077: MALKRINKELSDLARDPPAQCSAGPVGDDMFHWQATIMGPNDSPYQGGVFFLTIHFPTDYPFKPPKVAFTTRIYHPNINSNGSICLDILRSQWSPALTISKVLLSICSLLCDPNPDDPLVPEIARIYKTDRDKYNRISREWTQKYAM

Target: UbcH5C (Homo sapiens) (UniProt P61077)
Conditions: cited from earlier work

**Q.** With ubiquitin (from UniProt P0CG48) as the substance, how does the Kd read?
**A.** 300 µM
